Sequences of proteins named here, by UniProt entry; tags and fusion partners are left off.
UniProt P23975, whole entry: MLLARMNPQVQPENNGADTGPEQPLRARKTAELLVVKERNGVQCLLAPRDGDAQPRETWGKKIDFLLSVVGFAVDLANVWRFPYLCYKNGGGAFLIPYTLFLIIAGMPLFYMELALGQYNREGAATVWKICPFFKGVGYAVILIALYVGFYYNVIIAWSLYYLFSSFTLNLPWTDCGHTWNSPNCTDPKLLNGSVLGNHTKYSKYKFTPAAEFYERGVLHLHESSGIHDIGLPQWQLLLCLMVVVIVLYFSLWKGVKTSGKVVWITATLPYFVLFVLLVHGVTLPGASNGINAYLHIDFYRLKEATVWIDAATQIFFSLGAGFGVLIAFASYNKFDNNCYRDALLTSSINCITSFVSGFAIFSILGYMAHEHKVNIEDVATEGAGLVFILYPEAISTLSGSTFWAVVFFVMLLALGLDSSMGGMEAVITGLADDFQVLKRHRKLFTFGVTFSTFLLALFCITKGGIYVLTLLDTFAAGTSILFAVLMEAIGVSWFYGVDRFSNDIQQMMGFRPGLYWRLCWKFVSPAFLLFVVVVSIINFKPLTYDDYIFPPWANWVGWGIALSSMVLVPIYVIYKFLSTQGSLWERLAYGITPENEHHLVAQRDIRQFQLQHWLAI

According to patent US10919841B2, “Monoamine reuptake inhibitors” (Research Triangle Institute, priority 2009, dated 2021):

How the values were obtained:
[1] = biological target: T1, (h)NET (Homo sapiens, UniProt P23975)
[2] = biological target: T1, (h)NET; test: block of [3H]norepinephrine reuptake in HEK-(h)NET cells

Structure (SMILES): CC(NC(C)(C)C)C(=O)c1cccc(Cl)c1 (racemic) [Compound 2a, (±)-2-tert-butylamino-3′-chloropropiophenone, reference compound]
- Ki [1]: 6.97 µM
- IC50 [2]: 0.443 µM
